In article PMC8626583, “Collagen’s primary structure determines collagen:HSP47 complex stoichiometry” (The Journal of Biological Chemistry, 2021) one finds Kd data, which are given here for one molecule.

Chains of the proteins cited; added tags and fusions are not shown. Residues count along the entry.
UniProt P02454, 152-1207, chain 1 of 2: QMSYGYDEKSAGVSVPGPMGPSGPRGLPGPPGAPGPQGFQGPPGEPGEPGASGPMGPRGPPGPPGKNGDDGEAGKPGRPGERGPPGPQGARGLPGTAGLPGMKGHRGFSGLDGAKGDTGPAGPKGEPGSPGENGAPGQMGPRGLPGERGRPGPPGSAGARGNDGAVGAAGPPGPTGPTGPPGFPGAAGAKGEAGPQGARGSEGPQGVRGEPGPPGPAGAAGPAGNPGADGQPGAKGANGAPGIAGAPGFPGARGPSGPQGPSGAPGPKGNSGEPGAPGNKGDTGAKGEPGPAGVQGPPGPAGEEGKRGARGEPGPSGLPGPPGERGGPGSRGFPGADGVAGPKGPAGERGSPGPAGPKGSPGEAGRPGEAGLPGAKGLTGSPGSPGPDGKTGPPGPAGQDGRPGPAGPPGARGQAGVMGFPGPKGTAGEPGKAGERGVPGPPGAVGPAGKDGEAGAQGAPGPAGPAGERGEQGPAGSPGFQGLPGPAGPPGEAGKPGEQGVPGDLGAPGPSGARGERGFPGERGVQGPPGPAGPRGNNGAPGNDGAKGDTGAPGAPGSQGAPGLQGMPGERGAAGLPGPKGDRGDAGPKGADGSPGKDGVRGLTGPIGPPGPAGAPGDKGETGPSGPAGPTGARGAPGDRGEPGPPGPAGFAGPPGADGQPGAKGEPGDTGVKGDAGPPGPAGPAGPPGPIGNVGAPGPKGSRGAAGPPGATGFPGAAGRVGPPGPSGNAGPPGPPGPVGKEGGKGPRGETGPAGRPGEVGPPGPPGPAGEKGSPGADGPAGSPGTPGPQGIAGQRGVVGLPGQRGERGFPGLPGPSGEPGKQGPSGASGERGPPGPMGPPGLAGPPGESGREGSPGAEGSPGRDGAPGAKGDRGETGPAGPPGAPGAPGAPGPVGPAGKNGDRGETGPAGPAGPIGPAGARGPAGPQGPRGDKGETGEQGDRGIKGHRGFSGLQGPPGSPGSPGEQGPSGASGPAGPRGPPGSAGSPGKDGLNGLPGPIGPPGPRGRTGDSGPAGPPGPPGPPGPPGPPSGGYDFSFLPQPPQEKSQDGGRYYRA
collagen type I from rat tail collagen (Corning), UniProt P02466, 86-1125, chain 2 of 2: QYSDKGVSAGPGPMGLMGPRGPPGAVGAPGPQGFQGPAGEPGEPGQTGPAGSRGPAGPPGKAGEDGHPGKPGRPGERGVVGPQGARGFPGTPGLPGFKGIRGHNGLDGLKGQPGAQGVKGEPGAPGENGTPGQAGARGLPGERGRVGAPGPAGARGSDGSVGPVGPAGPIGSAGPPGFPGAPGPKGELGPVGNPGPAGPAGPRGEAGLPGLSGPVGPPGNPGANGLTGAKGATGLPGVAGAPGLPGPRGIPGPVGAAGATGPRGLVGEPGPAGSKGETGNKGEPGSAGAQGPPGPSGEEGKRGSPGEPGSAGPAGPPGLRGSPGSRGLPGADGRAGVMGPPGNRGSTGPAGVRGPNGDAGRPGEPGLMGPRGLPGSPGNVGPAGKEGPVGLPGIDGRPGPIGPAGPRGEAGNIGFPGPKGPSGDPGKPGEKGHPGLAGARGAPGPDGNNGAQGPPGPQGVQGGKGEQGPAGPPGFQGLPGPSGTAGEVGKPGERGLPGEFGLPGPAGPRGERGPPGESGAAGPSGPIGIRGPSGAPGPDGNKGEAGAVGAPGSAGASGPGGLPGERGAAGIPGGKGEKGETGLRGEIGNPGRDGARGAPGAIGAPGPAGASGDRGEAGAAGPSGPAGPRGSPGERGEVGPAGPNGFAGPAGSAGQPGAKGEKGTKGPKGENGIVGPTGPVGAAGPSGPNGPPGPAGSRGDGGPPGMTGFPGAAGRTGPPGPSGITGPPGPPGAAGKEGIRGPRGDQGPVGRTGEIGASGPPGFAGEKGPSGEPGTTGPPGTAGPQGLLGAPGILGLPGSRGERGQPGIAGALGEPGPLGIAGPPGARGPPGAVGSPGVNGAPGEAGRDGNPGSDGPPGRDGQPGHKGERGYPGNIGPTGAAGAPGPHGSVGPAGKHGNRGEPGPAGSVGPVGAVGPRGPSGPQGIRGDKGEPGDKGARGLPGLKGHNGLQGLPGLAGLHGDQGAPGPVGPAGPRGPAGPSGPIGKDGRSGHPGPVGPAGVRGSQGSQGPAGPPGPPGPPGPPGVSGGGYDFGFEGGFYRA

For this experiment, the target named is T1, collagen type I from rat tail collagen (Corning) (rat, UniProt P02454 152-1207; P02466 86-1125).
T1 construct: collagen type I alpha 1 chain, rat tail; collagen type I alpha 2 chain, rat tail; Positive control of the ELISA; also called collagen I; source: bought: Corning (rat tail); copies: 2 + 1
Briefly: ELISA; collagen model peptides or collagen I coated on Nunc MaxiSorp (500 ng/well), blocked with 1% BSA in TBS; soluble HSP47 in a 1:4 dilution series from 8 or 10 μM; detected by anti-His-HRP; triplicates, four-parameter logistic fit. The following applies: both partners purified.

B1: HSP47 (heat shock protein 47), Canis lupus, residues 36-418 with C-terminal hexahistidine tag (natural protein, UniProt C7C419 36-418, looked up)
chain: LSPKAATLAERSAGLAFSLYQAMAKDQAVENILLSPVVVASSLGLVSLGGKATTASQAKAVLSAEQLRDEEVHAGLGELLRSLSNSTARNVTWKLGSRLYGPSSVSFAEDFVRSSKQHYNCEHSKINFRDKRSALQSINEWAAQTTDGKLPEVTKDVERTDGALLVNAMFFKPHWDEKFHHKMVDNRGFMVTRSYTVGVTMMHRTGLYNYYDDEKEKLQIVEMPLAHKLSSLIILMPHHVEPLERLEKLLTKEQLKIWMGKMQKKAVAISLPKGVVEVTHDLQKHLAGLGLTEAIDKNKADLSRMSGKKDLYLASVFHATAFEWDTEGNPFDQDIYGREELRSPKLFYADHPFIFLVRDTQSGSLLFIGRLVRPKGDKMRDEL
notes: HSP47 (serpin H1), Canis lupus, codon-optimized construct in pET22-(b), residues 36LSP...RDEL418; Construct Mr 44,099 Da; Conjugated with 5 nm colloidal gold for the electron microscopy; also called wild-type HSP47; source: E. coli BL21 (DE)3, purified (Ni-NTA, ammonium sulfate precipitation of contaminants, Superdex 200); not shown: His6, C-terminal, kept
As to B1, the dissociation constant (Kd) is 116 ± 7.6 nM.
